Test results from patent US20060234955A1, “Cardiac glycosides to treat cystic fibrosis and other il-8 dependent disorders” (priority 2002, published 2006).

Test system: IL-8 secretion from cystic fibrosis epithelial cell line IB-3
Settings: IB-3 cells, 48 hour incubation, FIG. 3

Row | SMILES | ID50 (dose for 50% inhibition) for spontaneous IL-8 secretion
1 | C[C@@H]1O[C@@H](O[C@H]2C[C@@H](O)[C@]3(CO)[C@H]4[C@H](O)C[C@]5(C)[C@@H](C6=CC(=O)OC6)CC[C@]5(O)[C@@H]4CC[C@]3(O)C2)[C@H](O)[C@H](O)[C@H]1O [Compound IV, ouabain, reference compound] | 8 nM
2 | CO[C@H]1C[C@H](O[C@H]2CC[C@@]3(C)[C@H](CC[C@@H]4[C@@H]3CC[C@]3(C)[C@@H](C5=CC(=O)OC5)[C@@H](OC(C)=O)C[C@]43O)C2)O[C@@H](C)[C@@H]1O [Compound I] | approximately 1 nM
